For one compound, IC50 results are on record in patent publication US20100234377A1 (priority 2007, published 2010).

By UniProt entry, the sequences of proteins in these tests, tags left out.
UniProt O60760, whole entry: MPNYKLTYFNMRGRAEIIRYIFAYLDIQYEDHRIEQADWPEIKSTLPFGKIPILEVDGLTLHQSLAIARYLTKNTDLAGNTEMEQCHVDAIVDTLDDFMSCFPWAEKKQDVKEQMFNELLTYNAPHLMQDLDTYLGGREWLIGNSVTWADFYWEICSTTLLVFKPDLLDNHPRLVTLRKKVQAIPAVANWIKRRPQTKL

The target of the test is human Prostaglandin D Synthase (GST2) (Homo sapiens, UniProt O60760). In words: Homogeneous biochemical assay of human Prostaglandin D Synthase (GST2) based on its glutathion-S-transferase activity (GSH conjugation to monochlorobimane, fluorescence). The conditions noted are these: read-out: GST2 inhibition IC50; Table 2; comparative examples.

As a reminder, the IC50 is the concentration needed to halve the response being measured. Consider `O=C(Nc1cccc(C(=O)N2CCN(C(=O)Nc3ccc(F)cc3)CC2)c1)c1ccccc1`, for which the IC50 was 16.2 µM.
